Reference: US10328092B2, “Methods and compositions for treatment of drug addiction” (The Royal Institution for the Advancement of Learning / …, priority 2015, dated 2019)

Legend:
TNFα mRNA = conditions: mouse, in vivo
Experimental: For tissue, total RNA from the ventral striatum was extracted and isolated by RNAqueous-4PCR total RNA isolation kit (Ambion, AM1914), according to manufacturer's instructions. For microglia and astrocyte cultures, total RNA was isolated by RNeasy kit (Qiagen, 74136). For all sample types, 0.5 μg of total RNA was used for cDNA synthesis with Quantitect Reverse Transcription Kit (Qiagen, 205313), and quantitative RT-PCR was performed with Fast SYBR-Green Master Mix (Applied Biosystems) detected by StepOne Plus RealTime PCR system (Applied Biosystems). The sequences of qPCR primers used for mRNA quantification in this study were obtained from Integrated DNA Technologies, and are as follows: mouse TNFα forward, […] (SEQ ID NO: 1) [200 nM]; mouse TNFα reverse, […] (SEQ ID NO: 2) [200 nM]; mouse GAPDH forward, […] (SEQ ID NO: 3) [300 nM]; mouse GAPDH reverse, […] (SEQ ID NO: 4) [300 nM]; rat TNFα forward, […] (SEQ ID NO: 1) [600 nM]; rat TNFα reverse, […] (SEQ ID NO: 5) [600 nM]; rat cyclophilin forward, […] (SEQ ID NO: 6) [500 nM]; rat cyclophilin reverse, […] (SEQ ID NO: 7) [500 nM]. After 40 cycles, the Ct values were determined. To normalize the samples, ΔCt between TNFα and GADPH or cyclophilin Ct values was calculated. The x-fold difference in expression between the different treatments was then determined by subtraction of the ΔCt values and termed ΔΔCt. Finally, the total change was calculated as 2-ΔΔct and the relative amount compared with control samples was deducted.

[1] = test system: primary rat microglia cultures; assay: TNFα mRNA in primary rat microglia cultures; assay type: cell-based

## CCCN1CCC[C@@H]2Cc3n[nH]cc3C[C@H]21 [quinpirole]
TNFα mRNA
  TNFα mRNA in cortical microglia: 82±37 % of control
  TNFα mRNA in other striatal cell types: 138±72 % of control
  TNFα mRNA in striatal microglia cells: increased
[1]
  change in TNFα mRNA in primary rat microglia cultures: effective at increasing
